# In PubChem BioAssay AID697 (Columbia University Molecular Screening Center, 2007):
# Protein sequences, listed by entry. Tags and fused reporters are not part of them.
# UniProt Q9Y2R2, whole entry: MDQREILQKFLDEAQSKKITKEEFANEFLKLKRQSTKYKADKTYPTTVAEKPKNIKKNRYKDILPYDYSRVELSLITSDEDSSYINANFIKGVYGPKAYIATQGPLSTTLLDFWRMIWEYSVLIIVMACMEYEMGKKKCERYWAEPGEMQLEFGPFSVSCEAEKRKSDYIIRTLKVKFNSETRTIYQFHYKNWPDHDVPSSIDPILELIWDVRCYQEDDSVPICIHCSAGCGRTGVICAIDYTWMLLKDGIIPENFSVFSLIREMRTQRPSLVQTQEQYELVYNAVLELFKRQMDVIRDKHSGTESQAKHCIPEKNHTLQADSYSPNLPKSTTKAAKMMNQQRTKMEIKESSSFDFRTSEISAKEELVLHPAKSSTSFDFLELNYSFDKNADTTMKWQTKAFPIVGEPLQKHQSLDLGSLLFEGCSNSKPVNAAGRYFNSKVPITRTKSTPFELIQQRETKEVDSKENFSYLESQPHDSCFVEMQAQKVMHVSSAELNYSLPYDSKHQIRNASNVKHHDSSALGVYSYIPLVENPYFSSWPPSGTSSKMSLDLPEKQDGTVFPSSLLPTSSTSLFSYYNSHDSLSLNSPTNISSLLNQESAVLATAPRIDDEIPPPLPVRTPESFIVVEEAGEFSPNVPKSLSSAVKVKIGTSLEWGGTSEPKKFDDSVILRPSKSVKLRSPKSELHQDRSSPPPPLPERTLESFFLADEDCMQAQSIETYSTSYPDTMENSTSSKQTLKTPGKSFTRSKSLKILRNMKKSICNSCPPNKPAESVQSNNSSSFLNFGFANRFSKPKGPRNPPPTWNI
# The list shows a part of the results, in another mix than the full data. Some results for these compounds are left out of this collection, so the calls shown say nothing about other tests. Active and inactive are the calls of the source.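 The calls were made as follows: active = activation at 2 µM above a set limit, the mean plus 5 SD (cut at about 37% in these data); inactive = the rest.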
# Molecular target: Tyrosine-protein phosphatase non-receptor type 22 (Homo sapiens) (UniProt Q9Y2R2)
# Assay: LYP phosphatase activators, primary screen, biochemical, DiFMUP fluorescence, 2 µM (AID 697)
# Conditions: recombinant LYP, at 2 µM, hits give high values, 0 = plate median, 100 = signal doubled
row,SMILES,activation
1,CN(C)c1cccc(C(=O)NCC2(N(C)C)CCCCC2)c1,inactive: 0%
2,O=C(OC1CN2CCC1CC2)C(CO)(c1ccccc1)c1ccccc1 (stereo not drawn),inactive: -1.5%
3,CC(C)N1C(=O)CC2(CCN(CCOC(=O)C(O)(c3ccccc3)c3ccccc3)CC2)C1=O,inactive: -1.8%
